## Binding of CDR-mutated scFvs to a peptide of the spike HR2 region

The measurements come from Engelhart et al. 2022 (doi:10.1038/s41597-022-01779-4) through the FLAb antibody collection.

Antigen: PDVDLGDISGINAS, a 14-residue peptide of the SARS-CoV-2 spike HR2 region.

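The parent was found by panning a naive human phage display library on the peptide. In library AAYL51, one, two or three CDR residues were substituted; doubles and triples were drawn at random. AlphaSeq pools MATa yeast showing the antibodies with MATalpha yeast showing the peptide. Mating (16 h, 30 °C) was followed by selection of diploids and sequencing of their barcodes. Scores were corrected for input abundance and mapped to Kd with protein pairs of known affinity run in the same pool. The assay was run in three technical replicates.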

Each scFv is VL, three GGGGS repeats, VH, as in the parent Ab-91, and differs from it in the CDRs of the heavy chain only.
VL: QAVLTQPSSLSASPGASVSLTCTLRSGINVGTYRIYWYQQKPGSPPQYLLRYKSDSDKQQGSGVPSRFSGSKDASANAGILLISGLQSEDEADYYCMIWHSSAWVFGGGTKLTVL
VH: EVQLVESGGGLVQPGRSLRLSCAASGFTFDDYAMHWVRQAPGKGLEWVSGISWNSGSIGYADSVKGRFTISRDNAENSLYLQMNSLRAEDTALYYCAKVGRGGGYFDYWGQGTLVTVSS

Each variant is given by its three heavy chain CDRs, as the data file delimits them; those of the parent are GFTFDDYAMH, GISWNSGSIGYADSVK, VGRGGGYFDY.
All variants listed here change V64 of the VH, counted from its first residue.
Scale: log10 of Kd in nM, estimated from mating counts; low values are strong binders.
"nd" means that the variant was in the library but no mating with the target was seen in that replicate; the authors take this as a sign of poor binding, and no number exists.

- GFTFDDYAMH, GISWNSGSIGYADSKK, VGRGGGYFDY: nd, nd, nd (controls 0 of 9)
- GFTFDTYAMH, GISWNSGSIGYADSIK, VGRGGGYFDY: 2.39, 2.66, 1.52 (controls 2 of 9)
- GFTFDDYAMH, GISWNSGSIGYADTSK, VGRGGGYFPY: 2.56, nd, 2.24 (controls 0 of 9)
- GFTFVRYAMH, GISWNSGSIGYADSYK, VGRGGGYFDY: 4.64, 4.16, nd (controls 3 of 9)
- GFTFDDYAMH, GINWNQGSIGYADSHK, VGRGGGYFDY: 3.67, nd, nd (controls 5 of 9)
- GFTFDDYAMH, GILWNSGKIGYADSGK, VGRGGGYFDY: 5.68, nd, 5.41 (controls 0 of 9)
- GFTFDDYACH, GISWNSGSLGYADSEK, VGRGGGYFDY: 4.78, 4.84, nd (controls 3 of 9)
- GQTFDDYAMH, GISWNSGSIGYADSAK, VIRGGGYFDY: nd, nd, nd (controls 3 of 9)
- GFTFDDYAMH, GISWNSGSIGYAVSAK, VGRGEGYFDY: nd, 5.69, 5.22 (controls 4 of 9)
- GFTFDDYAMH, GISWCSGSIGWADSMK, VGRGGGYFDY: nd, nd, nd (controls 2 of 9)
- GFTFDDYAMH, GPSWNSGSIGYADSKK, LGRGGGYFDY: nd, nd, nd (controls 2 of 9)
- GFTFDDYAMH, GLSWNSGSIGYADSHK, VGRGGGYFDY: 4.74, 5.31, 5.68 (controls 8 of 9)
- GFTFDDYAMH, GISWNSGSDVYADSYK, VGRGGGYFDY: nd, 4.64, 4.17 (controls 5 of 9)
- GFTFDDYAMH, GISWNSGSIGYADSQK, VGRGGGYFDY: 3.82, 3.15, nd (controls 1 of 9)
- GFTFDDYAMH, GISWNSGSIPYADSHK, VGRGGGYLDY: 4.62, 4.15, 4.31 (controls 5 of 9)
- GFTFDDYAMH, GISWNSGSINEADSYK, VGRGGGYFDY: nd, nd, nd (controls 1 of 9)
- GFTFDDYAMH, GDSWNSGSIGYADSLK, VGRGGGYFDY: 4.49, nd, nd (controls 4 of 9)
- GFTFDDYAMH, GISRNSGSIGYADSFK, VGRGWGYFDY: 2.93, 3.04, 2.54 (controls 4 of 9)
- GFTFDDYAMH, EISWNSGSIGEADSEK, VGRGGGYFDY: 4.31, 5.15, nd (controls 4 of 9)
- GFTFDDYAMH, GISWNSGSIGYADSDK, VGQGGGYFDY: nd, 2.71, nd (controls 1 of 9)
- GFTFDDYAMH, GISWNSQSIGYLDSLK, VGRGGGYFDY: nd, nd, nd (controls 1 of 9)
- GFTFDDYAAH, GISWNSGSIGYADSWK, VGRGGLYFDY: nd, nd, nd (controls 4 of 9)
- GMTFDDYAMH, GISWNSGSIGYADSNK, VGRNGGYFDY: nd, nd, nd (controls 2 of 9)
- GFTFDDYAMH, GISWNSGSIGYADSIK, VGRCGGYPDY: 6.46, 6.20, nd (controls 3 of 9)
- GFTFDDYAMH, VISWNSGEIGYADSHK, VGRGGGYFDY: nd, nd, nd (controls 0 of 9)
- GFHFDDYAMQ, GISWNSGSIGYADSIK, VGRGGGYFDY: 5.90, 6.04, nd (controls 5 of 9)
- GFTFDDYAMH, GISWNSGSIKYADSEK, VGRGGGYQDY: 4.92, nd, nd (controls 3 of 9)
- GFTPDDYAMH, GISWNSGSIGYADSFK, VGRGGGYFDW: 0.94, 1.28, 0.75 (controls 0 of 9)
- GFTFDDYAMH, GISWNSGSDGYADHYK, VGRGGGYFDY: nd, nd, nd (controls 0 of 9)
- GFTFDDYAMH, GISWNSGSIDYADSPK, VGRGTGYFDY: nd, nd, nd (controls 1 of 9)
- GFTFDDYAMH, GISWNSGSIGYADSWK, TGRPGGYFDY: nd, nd, nd (controls 0 of 9)
- GFTFDDYAMH, GISWNSGSIGYADSHK, VGRGGGYFDY: 4.43, 4.02, 5.19 (controls 8 of 9)
- GTTFDDYAMH, GISWNSGSIGYADSTK, VGRGGGYFVY: 4.60, nd, 4.30 (controls 1 of 9)
- GFTFDDYAMH, GISWISGSITYADSCK, VGRGGGYFDY: 3.91, 4.44, nd (controls 1 of 9)
- GFTFDDYAMH, GISWNSGSIGYADSNK, VGRGGGYFDY: 2.34, 2.33, 2.14 (controls 0 of 9)
- GFTFDDYAMH, GICWNSGSIGYADSYK, VGRGGGYWDY: nd, nd, nd (controls 3 of 9)
- GFTFDDGAMH, GISWNSGSIGYPDSMK, VGRGGGYFDY: 4.33, 4.48, 4.76 (controls 6 of 9)
- GFTFDDYAMH, GISWNSPSIGYADSMP, VGRGGGYFDY: 3.84, 2.66, nd (controls 1 of 9)
- GFTFDDYAMK, GISWNSGSIGYADQPK, VGRGGGYFDY: nd, 5.30, 5.25 (controls 2 of 9)
- GFTFDDYAMC, GISWNSGSIGYADSCK, VGRLGGYFDY: nd, 5.54, nd (controls 0 of 9)
- GFTFDDYAMH, YISWNSGSIGYADSTK, VMRGGGYFDY: nd, nd, nd (controls 2 of 9)
- GFPFDVYAMH, GISWNSGSIGYADSKK, VGRGGGYFDY: nd, nd, nd (controls 0 of 9)
- GFTFDDYAMH, GPSWCSGSIGYADSGK, VGRGGGYFDY: nd, nd, nd (controls 0 of 9)
- GFTFDDYAMH, GISWFSGSIGYADSAG, VGRGGGYFDY: nd, nd, nd (controls 0 of 9)
- GFKSDDYAMH, GISWNSGSIGYADSWK, VGRGGGYFDY: nd, nd, nd (controls 1 of 9)
- GFTFDDYAMH, GISWNSGSIGYADSKK, VGRGRAYFDY: nd, nd, nd (controls 1 of 9)

Extract of 5 entries:

* GFTFDDYAMH, GISWNSGSIGYADSKK, VGRGRAYFDY = nd, nd, nd (controls 1 of 9)
* GFKSDDYAMH, GISWNSGSIGYADSWK, VGRGGGYFDY = nd, nd, nd (controls 1 of 9)
* GFTFDDYAMH, GPSWCSGSIGYADSGK, VGRGGGYFDY = nd, nd, nd (controls 0 of 9)
* GFTFDDYAMH, GPSWNSGSIGYADSKK, LGRGGGYFDY = nd, nd, nd (controls 2 of 9)
* GFTFDDYAMH, YISWNSGSIGYADSTK, VMRGGGYFDY = nd, nd, nd (controls 2 of 9)

Background: pairings of library AAYL51 with three empty control strains gave a value in 21% of cases (median 4.54, 5th percentile 3.26). Values in that range, when seen in few replicates, are hard to tell from nonspecific mating. The control count says in how many pairings with the empty strains this scFv gave a signal.